What was measured:
L. grayi WT DHFR = L. grayi WT DHFR (Listeria grayi, UniProt D7UY41); assay: biochemical
C. muridarum WT DHFR = C. muridarum WT DHFR (Chlamydia muridarum, UniProt Q9PJC7); assay: biochemical

Chains of the proteins cited; added tags and fusions are not shown. Residues count along the entry.
UniProt D7UY41, 1-163: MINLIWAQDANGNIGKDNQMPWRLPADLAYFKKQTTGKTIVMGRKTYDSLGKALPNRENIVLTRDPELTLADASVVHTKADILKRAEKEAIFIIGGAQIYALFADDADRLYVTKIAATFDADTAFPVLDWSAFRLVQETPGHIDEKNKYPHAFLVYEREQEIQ
UniProt Q9PJC7, 1-159: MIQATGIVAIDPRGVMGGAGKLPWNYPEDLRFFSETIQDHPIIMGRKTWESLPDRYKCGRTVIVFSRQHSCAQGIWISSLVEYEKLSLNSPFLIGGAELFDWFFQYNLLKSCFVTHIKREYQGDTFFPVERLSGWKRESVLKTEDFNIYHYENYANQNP

Compound	Ki (L. grayi WT DHFR) [µM]	Ki (C. muridarum WT DHFR) [µM]
COc1ccc([C@@H]2CC(c3c(O)[nH]c(=O)n(C)c3=O)=NN2)cc1OC [CD15]	5.01	14.6
CCOc1cc(C=C2C(=O)NC(=O)NC2=O)ccc1OCC(=O)O [CD17]	16.2	32.4
